For 33 molecules, inhibition results are on record in PubChem BioAssay AID2235 (The Scripps Research Institute Molecular Screening Center, 2010).

Amino acid sequences for entries named in this document (tags omitted).
UniProt P62136, whole entry: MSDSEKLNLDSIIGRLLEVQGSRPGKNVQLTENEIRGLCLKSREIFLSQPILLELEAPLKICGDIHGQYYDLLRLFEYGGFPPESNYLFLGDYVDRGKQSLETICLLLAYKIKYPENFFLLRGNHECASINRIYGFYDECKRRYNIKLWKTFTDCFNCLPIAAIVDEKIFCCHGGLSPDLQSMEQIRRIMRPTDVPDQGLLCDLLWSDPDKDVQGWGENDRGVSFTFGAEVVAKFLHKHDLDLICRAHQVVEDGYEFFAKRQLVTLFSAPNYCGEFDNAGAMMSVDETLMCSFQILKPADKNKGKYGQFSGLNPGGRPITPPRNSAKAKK

Only a part is listed here, and it is no random draw. Calls of active or inactive are those of the source.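 The calls were made as follows: active = inhibition above the mean inhibition of all tested compounds plus 3 SD, computed separately for each screening campaign (cut at about 15% in these data); inactive = the rest.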

The target of this experiment is Serine/threonine-protein phosphatase PP1-alpha catalytic subunit (Homo sapiens) (UniProt P62136). The experiment is described as follows: inhibition of human PP1 catalytic subunit – biochemical, fluorescence, OMFP substrate, single point, counter-screen for PP5 inhibitor project, primary screen (AID 2235). The conditions noted are these: purified PP1alpha, at 6.7 µM, active compounds read high. For orientation: Counterscreens check selectivity or assay interference.
As to `O=[N+]([O-])c1cc([N+](=O)[O-])c(-n2nnc3ccccc32)c([N+](=O)[O-])c1`, the inhibition is inactive: -1.07%.
For `Cc1ccc(C)c(NP(C)(=O)Oc2ccccc2)c1` (stereo not drawn), the inhibition was inactive: -0.2%.
Consider `CP(=O)(Nc1cccc(Br)c1)Oc1ccccc1` (stereo not drawn), for which the inhibition was inactive: -2.84%.
Then `Cc1cc(C)cc(OP(C)(=O)Nc2ccccn2)c1` (stereo not drawn), with inactive: -5.11%; and `CCOC(=O)c1ccc(NP(C)(=O)Oc2cc(C)cc(C)c2)cc1` (stereo not drawn), with inactive: 1.72%.
As for `Cc1cc(C)cc(OP(C)(=O)Nc2ccc(C)cc2C)c1` (stereo not drawn), the inhibition was inactive: 0.03%.
As to `COc1ccccc1OP(C)(=O)Nc1cccc(Br)c1` (stereo not drawn), the inhibition is inactive: -1.13%.
Then `CC1=NCCc2c1[nH]c1ccccc21.O=[N+]([O-])c1cc([N+](=O)[O-])c(O)c([N+](=O)[O-])c1`, with inactive: -0.15%; and `O=C(O)c1cccc(Nc2c([N+](=O)[O-])cc([N+](=O)[O-])cc2[N+](=O)[O-])c1`, with inactive: -3.75%; and `Cc1cc(C)cc(OP(C)(N)=O)c1` (stereo not drawn), with inactive: -4.21%.
Then `COc1ccc(OP(C)(=O)Nc2cccc(F)c2)cc1` (stereo not drawn), with inactive: -7.32%.
`COc1ccccc1OP(C)(=O)Nc1cc(Cl)ccc1C` (stereo not drawn): the inhibition was inactive: -1.19%.
Regarding `Cc1ccc(NP(C)(=O)Oc2ccccc2)c(C)c1` (stereo not drawn), the inhibition was inactive: 3.1%.
Consider `COc1ccccc1OP(C)(=O)Nc1ccc(C)cc1` (stereo not drawn), for which the inhibition was inactive: 0.58%.
With `CCOC(=O)c1ccc(NP(C)(=O)Oc2ccccc2)cc1` (stereo not drawn), the inhibition is inactive: -3.1%.
With `O=[N+]([O-])c1ccc2c(c1)C=Nc1ccccc1O2`, the inhibition is inactive: -2.14%.
The same measure for `Cc1cccc(C)c1OP(C)(N)=O` (stereo not drawn): inactive: 1.49%; for `CC(C)(C)c1ccc(OP(C)(=O)Nc2ccc(SC(F)(F)F)cc2)cc1` (stereo not drawn): inactive: 7.57%.
The same measure for `O=[N+]([O-])c1cc([N+](=O)[O-])c(Nc2cccnc2)c([N+](=O)[O-])c1`: inactive: -1.74%; for `CCN(CC)CCCOC(=O)C(O)(c1ccccc1)c1ccccc1`: inactive: 1.61%.
With `CP(=O)(Nc1ccccn1)Oc1ccc(Cl)cc1` (stereo not drawn), the inhibition was inactive: -1.54%.
For `CCOC(=O)c1ccc(NP(C)(=O)Oc2ccc(OC)cc2)cc1` (stereo not drawn), the inhibition was inactive: 0.91%.
As to `O=[N+]([O-])c1cc([N+](=O)[O-])c(O)c([N+](=O)[O-])c1.c1ccc(Oc2ccncc2)cc1`, the inhibition was inactive: -4.36%.
Turning to `CCOP(C)(=S)SCC(=O)NC(C)C(=O)O` (stereo not drawn), the inhibition is inactive: 3.61%.
Then `Cc1cc(C)cc(OP(C)(=O)Nc2ccc(SC(F)(F)F)cc2)c1` (stereo not drawn), with inactive: 7.33%; and `CCc1ccc(OP(C)(=O)N2CCN(c3ccc([N+](=O)[O-])cc3)CC2)cc1` (stereo not drawn), with inactive: 1.73%; and `CP(=O)(NC(=O)Nc1ccccc1)Oc1ccccc1` (stereo not drawn), with inactive: -1.8%.
For `CP(=O)(Oc1ccccc1)OC(c1ccccc1)C(F)(F)F` (stereo not drawn), the inhibition is inactive: 0.37%.
Take `Cc1cccc(C)c1OP(C)(=O)Nc1ccc(SC(F)(F)F)cc1` (stereo not drawn): the inhibition is inactive: -8.82%.
Consider `CP(=O)(Nc1ccc(SC(F)(F)F)cc1)Oc1ccc(Cl)cc1` (stereo not drawn), for which the inhibition was inactive: 3.17%.
Consider `CP(=O)(Nc1ccccc1Br)Oc1ccccc1` (stereo not drawn), for which the inhibition is inactive: -3.74%.
As for `COc1ccccc1OP(C)(=O)Nc1ccccc1` (stereo not drawn), the inhibition was inactive: -7.06%.
Then `CP(=S)(Nn1cnnc1)Oc1ccccc1` (stereo not drawn), with inactive: 0.7%.

What is called inhibition is the drop in the measured response relative to a control, in per cent.
